This passage reports IC50 results from patent US11274103B2, “Compounds for the modulation of MYC activity” (Syros Pharmaceuticals, Inc., priority 2016, dated 2022).

Chains of the proteins cited; added tags and fusions are not shown.
UniProt P01106, whole entry: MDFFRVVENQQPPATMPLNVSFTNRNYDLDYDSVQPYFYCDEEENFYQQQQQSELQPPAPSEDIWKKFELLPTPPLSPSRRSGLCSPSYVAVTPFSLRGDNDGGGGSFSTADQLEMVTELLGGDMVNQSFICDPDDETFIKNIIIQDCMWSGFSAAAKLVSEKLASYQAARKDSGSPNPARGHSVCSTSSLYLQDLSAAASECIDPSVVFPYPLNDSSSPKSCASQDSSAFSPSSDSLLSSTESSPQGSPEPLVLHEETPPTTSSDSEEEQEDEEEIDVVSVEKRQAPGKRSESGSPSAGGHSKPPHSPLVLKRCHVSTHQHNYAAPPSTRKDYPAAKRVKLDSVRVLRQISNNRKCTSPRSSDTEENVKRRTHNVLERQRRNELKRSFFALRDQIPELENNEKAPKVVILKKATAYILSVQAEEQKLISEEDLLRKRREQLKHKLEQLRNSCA

Molecules are shown by their SMILES.

One test addresses c-Myc/Max/Ebox DNA (Homo sapiens, UniProt P01106). Put plainly: c-Myc/Max/Ebox DNA AlphaScreen Assay. To be noted: read-out: Myc/Max/DNA Activity; calculated IC50; free c-Myc 20 nM, his6-Max 5 nM, biotinylated Ebox oligo 10 nM; 2 hour incubation. The method, then: Compounds of the invention were assayed for c-Myc/Max/EBox activity as described in the following protocol. Human his6-c-Myc and his6-Max were used with biotinylated DNA containing a single Ebox sequence (biotin[…] (SEQ ID NO: 1)) purchased from MWG Operon. Free c-Myc was generated from his6-c-Myc through thrombin cleavage of the his6 tag (SEQ ID NO: 2). For 384-well plate assays, 10 μL of a 2× solution of free c-Myc (20 nM final), Ni^2+ coated Acceptor Beads (25 μg/ml final), and biotinylated Ebox oligo (10 nM final) were added to 384-well plates with a Biotek EL406 liquid handler. 50 nL of compounds from stock plates were added by pin transfer using a Janus Workstation (PerkinElmer), allowing the compounds to interact with c-Myc prior to c-Myc binding with Max. In the current assay, DMSO was not allowed to exceed 2% v/v of the assay. 10 μl of 2× master mix containing streptavidin-coated donor beads (25 μg/ml final) and his6-Max (5 nM) were added. AlphaScreen measurements were performed on an Envision plate reader (PerkinElmer) utilizing the manufacturer's protocol.
Both master mixes were made in room temperature assay buffer (50 mM HEPES, 150 mM NaCl, 0.2% w/v BSA, 0.02% w/v Tween20, 40 μg/ml glycogen, 500 μM DTT, pH 8.0, wherein both DTT and glycogen were added fresh). Alpha beads were added to respective master solutions. All subsequent steps were performed in low light conditions. Solution 1: 2× solution of components with final concentrations of c-Myc Ni-coated Acceptor Beads (25 μg/ml), and biotinylated Ebox oligo (10 nM). Solution 2: 2× solution of streptavidin-coated donor beads (25 μg/ml final) and his6-Max 10 μL. Solution 1 was added to 384-well plate (AlphaPlate-384, PerkinElmer) with Biotek EL406 liquid handler and the plates were centrifuged very briefly. 50 nL of compounds from stock plates were added by pin transfer using a Janus Workstation. Solution 2 (10 μL) was added with the liquid handler. Plates were sealed with foil to block light exposure and prevent evaporation. Plates were very briefly centrifuged followed by 2 hour incubation. AlphaScreen measurements were performed on an Envision 2104 utilizing the manufacturer's protocol. Excitation was at 680 nm for donor bead release of singlet oxygen and emission was read with a bandpass filter from 520-620 nm. Glycogen: Roche Diagnostics #10901393001. Plate 1536: Perkin Elmer, 6004350. Plate 384: Perkin Elmer, 6005350. Nickel-His Alpha Beads: 6760619R. The data from this assay are summarized in Table 2 below (Myc/Max/DNA Activity), where “A” represents a calculated IC50 of less than 500 nM; “B” represents a calculated IC50 of between 500 nM and 5 μM; “C” represents a calculated IC50 of between 5 μM and 10 μM; “D” represents a value of greater than 10 μM, and “NT” represents a compound for which an assay result was not obtained.
For `CC(C)NCCC(=O)Nc1sc2c(c1-c1nc(C(=O)N3CCCCC3)cs1)CCNC2`, the IC50 was over 10 µM.
For `CC(C)NCCC(=O)Nc1sc2c(c1-c1nc(C(=O)N(C)C)cs1)CCNC2`, the IC50 is over 10 µM.
Take `Cc1ncccc1-c1csc(-c2c(NC(=O)CCNC(C)C)sc3c2CCNC3)n1`: the IC50 was 0.5 to 5 µM.
On the same count and under the same terms, then `CC(=O)Nc1csc(-c2c(NC(=O)CCNC(C)C)sc3c2CCNC3)n1`, with 0.5 to 5 µM; and `CC(C)NCCC(=O)Nc1sc2c(c1-c1nc(C(=O)N3CCN(C)CC3)cs1)CCNC2`, with over 10 µM.

Staying with this test, now noted: read-out: Myc/Max/DNA Activity; calculated IC50; free c-Myc 20 nM, his6-Max 5 nM, biotinylated Ebox oligo 10 nM; 2 hour incubation; tested form: HCl.
On to `CC(C)NCCC(=O)Nc1sc2c(c1-c1nc(Br)cs1)CCNC2`, for which the IC50 was 0.5 to 5 µM.

The same test, now with this note: read-out: Myc/Max/DNA Activity; calculated IC50; free c-Myc 20 nM, his6-Max 5 nM, biotinylated Ebox oligo 10 nM; 2 hour incubation; tested form: hydrochloride.
For `COCCNC(=O)c1csc(-c2c(NC(=O)CCNC(C)C)sc3c2CCNC3)n1`, the IC50 was over 10 µM.
Consider `CC(C)NCCC(=O)Nc1sc2c(c1-c1nc(C(=O)N3CCOCC3)cs1)CCNC2`, for which the IC50 was over 10 µM.
For `CC(C)NCCC(=O)Nc1sc2c(c1-c1nc(C(=O)NC(C)C)cs1)CCNC2`, the IC50 was 5 to 10 µM.
As for `Cc1ccc(-c2csc(-c3c(NC(=O)CCNC(C)C)sc4c3CCNC4)n2)cn1`, the IC50 was under 0.5 µM.
